Measurements from ChEMBL document CHEMBL5247607, “Design, synthesis and biological evaluation of a new series of arylidene indanones as small molecules for targeted therapy of non-small cell lung carcinoma and prostate cancer” (Eur J Med Chem, 2022).

Amino acid sequences for entries named in this document (tags omitted). A change or cut given only in a name is not applied to a line headed by its entry.
UniProt P07711: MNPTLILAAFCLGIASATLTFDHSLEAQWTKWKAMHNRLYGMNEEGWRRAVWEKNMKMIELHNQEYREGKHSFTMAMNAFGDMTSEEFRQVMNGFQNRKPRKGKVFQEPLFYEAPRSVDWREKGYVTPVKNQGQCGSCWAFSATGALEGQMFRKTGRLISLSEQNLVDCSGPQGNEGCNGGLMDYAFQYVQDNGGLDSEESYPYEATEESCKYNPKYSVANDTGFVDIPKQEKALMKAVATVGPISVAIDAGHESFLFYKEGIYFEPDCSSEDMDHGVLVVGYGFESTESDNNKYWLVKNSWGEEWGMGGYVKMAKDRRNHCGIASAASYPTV

Molecular target: Procathepsin L (Homo sapiens) (UniProt P07711)
Assay: Inhibition of cathepsin L (unknown origin) at 100 uM relative to control

O=C1/C(=C/c2ccc(N3CCCC3)cc2)Cc2cc3c(cc21)OCO3
inhibition: 70.4%
